# Measured affinities in a library of Ab-14 light chain variants

Binding partner: SARS-CoV-2 spike HR2 peptide, sequence PDVDLGDISGINAS.

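In library AAYL50, one, two or three CDR residues were substituted; doubles and triples were drawn at random. The assay is AlphaSeq: two haploid yeast populations carry antibody and antigen on their surface. After mating in shaken culture at 30 °C for 16 h, diploids were selected and their barcode pairs sequenced. The ratio of observed to expected reads was calibrated, replicate by replicate, on BCL2-family standards whose Kd was known from biolayer interferometry. Each pool was mated in three replicate cultures.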

Parent: Ab-14, a human scFv built as VH, a 15-residue (Gly4Ser)3 linker, VL. Only the CDRs of the light chain vary.
VH: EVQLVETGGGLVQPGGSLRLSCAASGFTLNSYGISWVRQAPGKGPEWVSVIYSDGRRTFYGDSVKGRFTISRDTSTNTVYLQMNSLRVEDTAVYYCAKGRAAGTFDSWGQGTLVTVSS
VL: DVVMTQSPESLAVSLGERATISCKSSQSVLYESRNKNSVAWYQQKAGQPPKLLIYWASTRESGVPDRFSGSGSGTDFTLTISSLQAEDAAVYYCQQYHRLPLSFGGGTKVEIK

The parent's light chain CDRs are KSSQSVLYESRNKNSVA, WASTRES, QQYHRLPLS; each variant's own CDRs replace them letter for letter.
Values are log10 of the apparent Kd in nM; lower means stronger binding.
A pair that was not seen in that replicate is written "nd"; this usually means weak binding, but a binder can also be missed.

{"CDR-L1": "KSSQSVLYESRNKNSVA", "CDR-L2": "WASTRES", "CDR-L3": "QQYHDLPKS", "log10 Kd, replicates": "3.50 3.10 3.51", "signal with controls": "0/9"}
{"CDR-L1": "KKSQSVLYEDRNKNSVN", "CDR-L2": "WASTRES", "CDR-L3": "QQYHRLPLS", "log10 Kd, replicates": "nd nd nd", "signal with controls": "2/9 (4.22)"}
{"CDR-L1": "KSSQSSLYESRNKNSVA", "CDR-L2": "WAATRES", "CDR-L3": "QQYHRNPLS", "log10 Kd, replicates": "nd nd nd", "signal with controls": "0/9"}
{"CDR-L1": "KSSQSVLYESRNKNSVA", "CDR-L2": "WASTRES", "CDR-L3": "QQYKRWILS", "log10 Kd, replicates": "0.53 0.75 0.79", "signal with controls": "0/9"}
{"CDR-L1": "KSYQSVLYESRNKNSVA", "CDR-L2": "WASTRFS", "CDR-L3": "QQYHRLPLW", "log10 Kd, replicates": "3.54 3.28 3.10", "signal with controls": "1/9 (3.84)"}
{"CDR-L1": "KSSQSVLYESRRKNSVA", "CDR-L2": "WASTRES", "CDR-L3": "QQVHRLKLS", "log10 Kd, replicates": "5.38 3.09 nd", "signal with controls": "1/9 (3.33)"}
{"CDR-L1": "KSSQSVRYESRNKNSVA", "CDR-L2": "WASTDES", "CDR-L3": "QQYHRLPLS", "log10 Kd, replicates": "nd nd nd", "signal with controls": "2/9 (3.35)"}
{"CDR-L1": "KSSQNVLYESRSKNSVA", "CDR-L2": "WASTRES", "CDR-L3": "QQYHRLKLS", "log10 Kd, replicates": "nd nd nd", "signal with controls": "0/9"}
{"CDR-L1": "KSSQSVLYTSRNKNSVA", "CDR-L2": "WASTRES", "CDR-L3": "QEYHRLPLH", "log10 Kd, replicates": "2.03 2.88 3.29", "signal with controls": "0/9"}
{"CDR-L1": "KVSQSALYESRNKNSVA", "CDR-L2": "WASTRES", "CDR-L3": "QQYHRLPLV", "log10 Kd, replicates": "0.13 0.46 0.16", "signal with controls": "2/9 (4.97)"}
{"CDR-L1": "ASSQSVLYESRNKNSVA", "CDR-L2": "WASTRES", "CDR-L3": "QQYHRLSLS", "log10 Kd, replicates": "nd nd nd", "signal with controls": "0/9"}
{"CDR-L1": "KSSQSVLYASRNKNSVA", "CDR-L2": "WASTRES", "CDR-L3": "QQYFRLPLH", "log10 Kd, replicates": "1.51 1.36 1.48", "signal with controls": "2/9 (4.44)"}
{"CDR-L1": "KHSQSVLYESRNKNSRA", "CDR-L2": "WASTRES", "CDR-L3": "QQYHRKPLS", "log10 Kd, replicates": "nd nd nd", "signal with controls": "1/9 (4.72)"}
{"CDR-L1": "KSSQSVLYESRNKNSVA", "CDR-L2": "WPSTRES", "CDR-L3": "QQLHRSPLS", "log10 Kd, replicates": "5.38 5.40 3.98", "signal with controls": "2/9 (4.45)"}
{"CDR-L1": "KRSKSVLYESRNKNSVA", "CDR-L2": "TASTRES", "CDR-L3": "QQYHRLPLS", "log10 Kd, replicates": "2.36 2.38 2.27", "signal with controls": "1/9 (3.02)"}
{"CDR-L1": "KSSQEVLYESRNKNSVA", "CDR-L2": "WASTRLS", "CDR-L3": "QQYHRFPLS", "log10 Kd, replicates": "1.46 1.46 1.97", "signal with controls": "0/9"}
{"CDR-L1": "KSSQSVLYESRNPNSVA", "CDR-L2": "WAYTRES", "CDR-L3": "QQYHRLPLS", "log10 Kd, replicates": "2.14 1.81 2.45", "signal with controls": "0/9"}
{"CDR-L1": "KSPQSVLYESRNKNSVA", "CDR-L2": "WNSTRES", "CDR-L3": "QQYHRLQLS", "log10 Kd, replicates": "5.26 nd 4.44", "signal with controls": "2/9 (3.30)"}
{"CDR-L1": "DSSQSVLYESRNKNWVA", "CDR-L2": "WASTRES", "CDR-L3": "QQYHRLPLS", "log10 Kd, replicates": "nd nd 4.31", "signal with controls": "5/9 (4.49)"}
{"CDR-L1": "KSSQSVLYESLNKNSVA", "CDR-L2": "WASTREH", "CDR-L3": "QQYHILPLS", "log10 Kd, replicates": "0.38 0.74 0.63", "signal with controls": "0/9"}
{"CDR-L1": "KSSQSVLYESRNANSVA", "CDR-L2": "WASTREQ", "CDR-L3": "QQYHRLPLS", "log10 Kd, replicates": "1.28 1.42 1.43", "signal with controls": "6/9 (4.47)"}
{"CDR-L1": "KSSQHVLYESRNKNSVA", "CDR-L2": "WASTRES", "CDR-L3": "HQYHRLQLS", "log10 Kd, replicates": "nd nd nd", "signal with controls": "0/9"}
{"CDR-L1": "KSKQSVLYESRTKNSVA", "CDR-L2": "WASTYES", "CDR-L3": "QQYHRLPLS", "log10 Kd, replicates": "nd 5.70 5.24", "signal with controls": "5/9 (4.17)"}
{"CDR-L1": "KHSQSSRYESRNKNSVA", "CDR-L2": "WASTRES", "CDR-L3": "QQYHRLPLS", "log10 Kd, replicates": "nd nd nd", "signal with controls": "0/9"}
{"CDR-L1": "KSSQSVLYESRNKNSVA", "CDR-L2": "WASTLES", "CDR-L3": "QSYHRFPLS", "log10 Kd, replicates": "2.10 3.33 3.14", "signal with controls": "3/9 (3.60)"}

From the list, the first 4 with no signal in any replicate:

{"CDR-L1": "KKSQSVLYEDRNKNSVN", "CDR-L2": "WASTRES", "CDR-L3": "QQYHRLPLS", "log10 Kd, replicates": "nd nd nd", "signal with controls": "2/9 (4.22)"}
{"CDR-L1": "KSSQSSLYESRNKNSVA", "CDR-L2": "WAATRES", "CDR-L3": "QQYHRNPLS", "log10 Kd, replicates": "nd nd nd", "signal with controls": "0/9"}
{"CDR-L1": "KSSQSVRYESRNKNSVA", "CDR-L2": "WASTDES", "CDR-L3": "QQYHRLPLS", "log10 Kd, replicates": "nd nd nd", "signal with controls": "2/9 (3.35)"}
{"CDR-L1": "KSSQNVLYESRSKNSVA", "CDR-L2": "WASTRES", "CDR-L3": "QQYHRLKLS", "log10 Kd, replicates": "nd nd nd", "signal with controls": "0/9"}

Nonspecific signal, from three strains lacking the peptide, appeared in 18% of pairings of library AAYL50, centred on 4.19 (5% of these signals below 2.99); values are not corrected for it. For each scFv, signals with the empty controls are counted beside the result, with their mean in brackets.

From the AlphaSeq antibody data of Engelhart et al. 2022 (doi:10.1038/s41597-022-01779-4), copy in the FLAb collection.